Sequences of proteins named here, by UniProt entry; tags and fusion partners are left off.
UniProt P30560, whole entry: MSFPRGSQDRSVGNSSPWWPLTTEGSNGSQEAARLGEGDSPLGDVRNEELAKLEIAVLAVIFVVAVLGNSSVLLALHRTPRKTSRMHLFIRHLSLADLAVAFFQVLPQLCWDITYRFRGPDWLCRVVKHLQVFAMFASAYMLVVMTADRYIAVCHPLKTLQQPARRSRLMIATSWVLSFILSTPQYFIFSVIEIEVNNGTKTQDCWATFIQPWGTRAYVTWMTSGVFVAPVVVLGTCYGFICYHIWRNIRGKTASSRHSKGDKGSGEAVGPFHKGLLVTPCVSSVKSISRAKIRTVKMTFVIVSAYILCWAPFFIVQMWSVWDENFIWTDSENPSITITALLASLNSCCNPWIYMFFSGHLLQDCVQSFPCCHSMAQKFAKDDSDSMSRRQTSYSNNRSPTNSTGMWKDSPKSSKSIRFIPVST

In patent publication US5436254A, “Carbostyril derivatives” (Otsuka Pharmaceutical Company, Ltd., priority 1989, dated 1995):

target: V1 receptor (Rattus norvegicus, UniProt P30560); test: biochemical; format: binding

SMILES | IC50 [nM]
CN(C)CCCCOc1ccc(C(=O)N2CCC(N3C(=O)CCc4ccccc43)CC2)cc1 [Example 179, 1-{1-[4-(4-Dimethylaminobutoxy)benzoyl]-4-piperidinyl}-3,4-dihydrocarbostyril] | 250
CC(=O)NC(C)C(=O)NCCCOc1ccc(C(=O)N2CCC(N3C(=O)CCc4ccccc43)CC2)cc1 (stereo not shown) [Example 209, 1-{1-[4-(3-(2-Acetylaminopropanoylamino)propoxy)benzoyl]-4-piperidinyl}-3,4-dihydrocarbostyril] | 250
CN(C)CC(O)CCCOc1ccc(C(=O)N2CCC(N3C(=O)CCc4ccccc43)CC2)cc1 (stereo not shown) [Example 31, 1-{1-[4-(5-Dimethylamino-4-hydroxypentyloxy)benzoyl]-4-piperidinyl}-3,4-dihydrocarbostyril] | 250
CS(=O)(=O)OCCCOc1ccc(C(=O)N2CCC(N3C(=O)CCc4ccccc43)CC2)cc1 [Example 34, 1-{1-[4-(3-Methylsulfonyloxypropoxy)benzoyl]-4-piperidinyl}-3,4-dihydrocarbostyril] | 250
